An excerpt weighted towards active compounds, which were near 2.4% of everything screened.
Rango release inh = inhibitors of RanGTP-induced Rango-importin beta complex dissociation | AID 540253 | O95149+P62826 | Potency, µM (doses to about 46.1 µM) | Biochemical FRET Rango-importin beta, RanGTP-induced dissociation | hit rate 0.071% among 340,000; calls by dose curve; further: nearly all actives have a fitted effect of over 45% in size
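Recombinant Rango FRET biosensor (EYFP–snurportin 1 IBB–cerulean CFP10) at 0.1 uM premixed with 0.25 uM importin beta in PBS, 1 mM DTT, 0.02% Tween-20, 0.1% BSA. Compound added 5 min; RanGTP-RCC1 (0.6 uM Ran, 2 mM GTP, 0.2 uM RCC1) then triggers release, read at 45 min.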
TSG101-PTAP inh = blocks PTAP/TSG101 interaction to inhibit HIV-1 budding. Fluorescence polarization, FITC-PTAP peptide / Tsg101 binding. Q99816. 340,000 tested, under 10 active. Potency, µM (doses to about 115 µM), most hits filed as inhibitors. AID 493005; active means well fitted inhibition curve with a large enough effect in the main read-out, with a control signal flat, not every such curve was filed as active; inconclusive means small, poorly fitted or top-dose-only effect, or effect the other way, or a change in a side signal; inactive means no such curve, though single readings can be large or run the other way
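Tsg101 binding domain (10 uM final) was mixed with compound and a FITC-labeled PTAP peptide (50 nM final) in HEPES pH 7.5 buffer with NaCl, Tween 20, EDTA and TCEP; fluorescence polarization was read after 20 min at r.t.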
Rango-impB inh = Rango-importin beta binding inhibition; Q14974; Rango CFP/YFP FRET sensor + importin beta, 45 min; Potency, µM (doses to about 92.2 µM); hit rate 0.031% among 340,000; AID 540263; calls by dose curve; further: nearly all actives have a fitted effect of over 15% in size
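Inhibition scored from the CFP 486 nm/YFP 530 nm FRET ratio 45 min after adding 0.125 microM importin beta to 50 nM Rango biosensor preincubated 5 min with compound (room temperature, PBS with DTT, Tween-20, BSA). No-importin wells as positive control.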
TDP1 inh = blocks human tyrosyl-DNA phosphodiesterase 1. recombinant TDP1, AlphaScreen DNA substrate cleavage. AID 485290. Potency, µM (series often up to 130 µM), actives largely listed as inhibitors. hit rate 0.28% among 350,000; further: nearly all actives have a fitted effect of over 40% in size
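Enzyme-compound mixtures sat 15 min at room temperature, followed by a 5 min reaction with 15 nM final substrate and 10 min with AlphaScreen beads. Recombinant human Tdp1 was used at 1 nM final.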
ClpP mod = qHTS Assay for Activators of ClpP. Potency, µM (highest dose often 57.5 µM). ATP-dependent Clp protease proteolytic subunit (Bacillus subtilis (strain 168)), P80244. purified B. subtilis ClpP, FRET peptide cleavage, 20 min. hit rate 1.9% among 340,000; active means well fitted falling curve with a large enough effect; inconclusive means small, poorly fitted or top-dose-only effect; inactive means no such curve, though single readings can be large or run the other way; further: the source files actives as falling curves though it sought activators and does not explain the sign; nearly all actives have a fitted effect of over 65% in size
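ClpP 10 microg/mL final, pH 8 Tris/KCl buffer with BSA, glycerol, Tween-20; compound pinned in; FRET-FV substrate; RT 20 min; Ex320/Em430; ΔFRET vs ADEP 5.8 microM, DMSO, no enzyme.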
ALOX12 inh = inhibitors of human 12S-lipoxygenase ALOX12. Potency, µM (highest dose often 108 µM), actives largely listed as inhibitors. AID 1671190. hit rate 1.1% among 580,000. purified 12hLO, xylenol orange hydroperoxide absorbance. P18054
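Purified human 12hLO (150 nM final) in 25 mM Hepes, 0.01% Triton X-100, pH 7.0 was preincubated 15 min at room temperature with compound. Then 40 uM arachidonic acid was added, 30 min. Hydroperoxide was read by Fe-XO absorbance ratio 573/405 nm.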
Numbers stand for hits; . = inactive; ? = inconclusive; / = no result; [ ] = dose if it differs, or a comment. Unless noted, the call rests on the fitted dose curve; in most records, active means well fitted curve in the direction sought with a large enough effect; inconclusive means small, poorly fitted or top-dose-only effect, or another doubt; inactive means no such curve, though single readings can be large; an effect the other way counts as inactive or inconclusive.

The chains behind the UniProt entries cited, without tags or fusion partners.
ATP-dependent Clp protease proteolytic subunit (Bacillus subtilis (strain 168)), P80244, UniProt P80244, whole entry, looked up: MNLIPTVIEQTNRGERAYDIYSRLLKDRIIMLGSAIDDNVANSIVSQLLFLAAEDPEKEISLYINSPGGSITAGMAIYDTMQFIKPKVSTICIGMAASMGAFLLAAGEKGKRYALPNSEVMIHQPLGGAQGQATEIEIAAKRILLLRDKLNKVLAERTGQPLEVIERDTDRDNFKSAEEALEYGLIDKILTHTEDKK

SMILES	Rango release inh	TSG101-PTAP inh	Rango-impB inh	TDP1 inh	ClpP mod	ALOX12 inh
Cc1nnc(N/N=C/c2cccc(OCc3ccc(Cl)c(Cl)c3)c2)n1N	.	.	.	.	.	17.8µM
CCOC(=O)c1ccccc1NC(=O)Cn1c(=O)n(Cc2ccc(C(=O)NCc3ccc4c(c3)OCO4)cc2)c(=O)c2ccccc21	/	/	/	.	.	.
O=C(Cn1c(=O)n(Cc2ccc(C(=O)NCc3ccc4c(c3)OCO4)cc2)c(=O)c2ccccc21)Nc1ccc(F)cc1F	/	/	/	25.1µM	.	.
CCN(CC)S(=O)(=O)c1ccc(C)c(NC(=O)C2CCN(C(=O)C(C)(C)C)CC2)c1	/	/	/	/	/	.
N#C/C(=C\c1ccc[nH]1)C(=O)Nc1ccccc1Cl	.	.	16.4µM	.	.	.
O=C(Nc1ccc(Cl)cc1)c1cccc(N2C(=O)C3C4CCC(C4)C3C2=O)c1 (configuration not stated)	.	.	.	.	.	.
O=C(O)c1ccc(NC(=O)c2cccc(N3C(=O)C4C5CCC(C5)C4C3=O)c2)cc1 (configuration not stated)	.	.	.	.	25.1µM	.
COc1ccc(NC(=O)c2cccc(N3C(=O)C4C5CCC(C5)C4C3=O)c2)cc1 (configuration not stated)	.	.	.	.	.	6.31µM
O=C(N[C@@H]1CN(C(=O)C2CC2)CC[C@@H]1CO)C1CC1	/	/	/	/	/	.
N#CC(C(=O)CSc1ccc2c(c1)OCCO2)c1nc(-c2ccccc2)cs1 (configuration not stated)	/	/	/	/	/	10µM
Nc1ccc(-c2nc3ccc(N)cc3s2)cc1	?	.	?	/	/	.
Nc1cc2sc(-c3ccc(C(=O)O)cc3)nc2cc1Cl	?	.	?	/	4.47µM	.
O=C(c1ccc2ncsc2c1)N1CCCCC1	.	.	.	.	.	.
NC(=O)c1ccc2nc(NC(=O)c3ccc(N)cc3)sc2c1	.	.	.	79.4µM	/	.
Nc1ccc(-c2nc3ccc(C(=O)O)cc3s2)cc1	?	.	?	79.4µM	.	.
O=C(O)c1ccc2ncsc2c1	.	.	.	44.7µM	/	44.7µM
Nc1ccc2nc(-c3ccc(O)cc3)sc2c1	/	/	/	.[12.3 µM]	.	.
COc1ccc(-c2ccnc3nc(Cc4ccc(F)cc4)nn23)c(F)c1	/	/	/	/	/	.
CC(=O)C1C(=O)CC(C)(O)C(C(C)=O)C1c1ccc(O)cc1 (configuration not stated)	/	/	/	/	/	.
CC1(C)CC(NC(=S)NC2CC2)CC(C)(C)N1	.	.	?	/	35.5µM	.
CC1(C)CC(NC(=S)NC2CCCC2)CC(C)(C)N1	/	/	/	/	/	.
COc1ccccc1-c1cn2c(n1)CO[C@@H](CNC(C)C)C2	/	/	/	/	/	.
Cc1noc(C)c1CNCC1(COc2cccnc2)C[C@@H](O)[C@@H](O)C1 (some centres not stated)	/	/	/	/	/	12.6µM
Cc1noc(C)c1CNCC1(COc2cnccn2)C[C@@H](O)[C@@H](O)C1 (some centres not stated)	/	/	/	/	/	.
CN(C)C[C@@H]1CN(c2ncccn2)C[C@H]1NC(=O)c1ccc(Cl)s1	/	/	/	/	/	.
SMILES	Rango release inh	TSG101-PTAP inh	Rango-impB inh	TDP1 inh	ClpP mod	ALOX12 inh
CC(=O)c1cc2c(=O)c3cc(C)ccc3oc2nc1C	.	.	.	.	.	.
Cc1ccc2oc3nc(C)c(C(=O)O)cc3c(=O)c2c1	.	.	.	.	28.2µM	?
CC(=O)c1cccc(Nc2nc(-c3ccccc3)nc3ccccc23)c1	.	.	.	/	.	?
O=c1[nH]c(Nc2ccccc2)cc2cc(Br)ccc12	?	.	?	/	.	15.8µM
COc1ccccc1Nc1cc2cc(Br)ccc2c(=O)[nH]1	?	.	?	/	.	8.91µM
O=c1cc(Nc2cccc(Br)c2)[nH]c(=O)[nH]1	.	.	.	.	/	.
O=c1[nH]c(Nc2ccccc2)cc2ccccc12	?	.	?	.	28.2µM	?
CC(=O)c1cccc(-c2ccc3c(=O)[nH]c(Nc4ccccc4)cc3c2)c1	11.6µM[inhibitor]	.	?	/	.	.

Bioassay records deposited in PubChem BioAssay by National Center for Advancing Translational Sciences (NCATS).
